Experimental data from article PMC3862803, “Human Breast Tumor Cells Are More Resistant to Cardiac Glycoside Toxicity Than Non-Tumorigenic Breast Cells” (PLoS ONE, 2013).

System: p-ERK1/2
Assay: Western blot of cell lysates for p-ERK1/2
Type: cell-based, human
Settings: cancer cells (MCF10CA1, MDA-MB-231); staurosporine, 24 hours

`CN[C@@H]1C[C@H]2O[C@@](C)([C@@H]1OC)n1c3ccccc3c3c4c(c5c6ccccc6n2c5c31)C(=O)NC4` [staurosporine] was tested, and the “p-ERK expression in lysates (western blot)” value was “enhanced p-ERK expression”.
